Results taken from patent US20210070748A1, “INHIBITORS OF BRUTONS TYROSINE KINASE” (Pharmacyclics LLC, priority 2015, published 2021).
pIC50: −log10 of the molar value.

By UniProt entry, the sequences of proteins in these tests, tags left out. Residues count along the entry.
UniProt P00533, 25-1210 limits assumed: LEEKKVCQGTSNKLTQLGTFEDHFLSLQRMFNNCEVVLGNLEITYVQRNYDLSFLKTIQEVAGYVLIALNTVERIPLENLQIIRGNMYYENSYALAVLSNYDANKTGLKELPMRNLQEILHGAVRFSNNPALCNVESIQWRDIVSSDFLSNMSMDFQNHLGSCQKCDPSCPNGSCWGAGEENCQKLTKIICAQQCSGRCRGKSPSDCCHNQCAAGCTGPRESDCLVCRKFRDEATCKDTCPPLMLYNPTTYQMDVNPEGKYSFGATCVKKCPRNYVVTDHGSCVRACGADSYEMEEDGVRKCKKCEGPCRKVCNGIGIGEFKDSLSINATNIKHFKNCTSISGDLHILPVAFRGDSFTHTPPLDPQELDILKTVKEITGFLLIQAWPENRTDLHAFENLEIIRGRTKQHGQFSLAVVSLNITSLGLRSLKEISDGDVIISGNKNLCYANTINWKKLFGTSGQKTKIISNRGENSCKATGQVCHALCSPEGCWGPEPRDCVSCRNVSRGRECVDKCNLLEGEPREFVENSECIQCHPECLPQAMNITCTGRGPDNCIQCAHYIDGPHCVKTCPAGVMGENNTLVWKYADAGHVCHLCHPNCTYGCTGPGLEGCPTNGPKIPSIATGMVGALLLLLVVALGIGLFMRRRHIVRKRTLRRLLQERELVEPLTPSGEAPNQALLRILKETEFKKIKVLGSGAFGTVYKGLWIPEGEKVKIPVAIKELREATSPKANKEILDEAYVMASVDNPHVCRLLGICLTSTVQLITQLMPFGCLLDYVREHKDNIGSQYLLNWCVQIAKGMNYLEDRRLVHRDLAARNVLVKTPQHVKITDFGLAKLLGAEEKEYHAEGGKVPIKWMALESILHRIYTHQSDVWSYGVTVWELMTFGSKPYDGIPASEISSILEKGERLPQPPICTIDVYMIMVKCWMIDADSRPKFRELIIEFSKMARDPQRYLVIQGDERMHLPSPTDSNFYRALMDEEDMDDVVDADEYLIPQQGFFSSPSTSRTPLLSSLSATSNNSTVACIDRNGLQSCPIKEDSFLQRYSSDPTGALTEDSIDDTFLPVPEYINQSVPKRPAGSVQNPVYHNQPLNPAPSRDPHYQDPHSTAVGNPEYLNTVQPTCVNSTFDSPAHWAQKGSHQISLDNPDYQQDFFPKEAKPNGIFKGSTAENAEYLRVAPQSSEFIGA
UniProt P12931, whole entry: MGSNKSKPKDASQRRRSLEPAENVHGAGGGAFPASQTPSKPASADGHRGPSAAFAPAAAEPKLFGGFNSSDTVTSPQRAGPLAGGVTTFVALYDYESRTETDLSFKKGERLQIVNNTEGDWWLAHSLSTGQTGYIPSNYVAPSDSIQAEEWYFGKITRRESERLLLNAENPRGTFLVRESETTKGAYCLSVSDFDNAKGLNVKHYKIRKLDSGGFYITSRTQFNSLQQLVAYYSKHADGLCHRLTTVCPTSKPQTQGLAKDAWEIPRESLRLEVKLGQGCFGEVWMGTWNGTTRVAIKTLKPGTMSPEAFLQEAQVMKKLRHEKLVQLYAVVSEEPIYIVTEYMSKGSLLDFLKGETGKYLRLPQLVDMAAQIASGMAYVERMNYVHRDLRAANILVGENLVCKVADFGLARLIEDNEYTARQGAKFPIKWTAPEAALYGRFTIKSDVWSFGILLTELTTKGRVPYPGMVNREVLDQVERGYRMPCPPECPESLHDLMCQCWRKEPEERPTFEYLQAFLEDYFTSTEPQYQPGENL
UniProt Q06187, whole entry: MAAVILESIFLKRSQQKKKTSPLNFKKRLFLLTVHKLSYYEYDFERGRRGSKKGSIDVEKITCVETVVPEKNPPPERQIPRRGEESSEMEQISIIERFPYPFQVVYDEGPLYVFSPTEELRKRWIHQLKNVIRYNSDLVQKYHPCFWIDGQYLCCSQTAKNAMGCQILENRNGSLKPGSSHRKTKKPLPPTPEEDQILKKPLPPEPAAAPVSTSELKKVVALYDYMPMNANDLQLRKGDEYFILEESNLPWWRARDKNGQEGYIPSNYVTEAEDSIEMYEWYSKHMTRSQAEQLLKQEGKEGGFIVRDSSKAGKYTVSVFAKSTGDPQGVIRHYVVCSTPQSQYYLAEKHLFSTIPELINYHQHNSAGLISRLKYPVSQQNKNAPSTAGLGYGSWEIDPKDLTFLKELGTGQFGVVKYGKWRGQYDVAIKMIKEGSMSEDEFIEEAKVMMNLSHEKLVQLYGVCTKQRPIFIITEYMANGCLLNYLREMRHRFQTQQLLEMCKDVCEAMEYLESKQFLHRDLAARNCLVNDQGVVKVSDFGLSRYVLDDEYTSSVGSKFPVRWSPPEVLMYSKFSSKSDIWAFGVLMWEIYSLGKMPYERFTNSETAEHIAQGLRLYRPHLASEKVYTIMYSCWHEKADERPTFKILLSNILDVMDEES
UniProt P52333, whole entry: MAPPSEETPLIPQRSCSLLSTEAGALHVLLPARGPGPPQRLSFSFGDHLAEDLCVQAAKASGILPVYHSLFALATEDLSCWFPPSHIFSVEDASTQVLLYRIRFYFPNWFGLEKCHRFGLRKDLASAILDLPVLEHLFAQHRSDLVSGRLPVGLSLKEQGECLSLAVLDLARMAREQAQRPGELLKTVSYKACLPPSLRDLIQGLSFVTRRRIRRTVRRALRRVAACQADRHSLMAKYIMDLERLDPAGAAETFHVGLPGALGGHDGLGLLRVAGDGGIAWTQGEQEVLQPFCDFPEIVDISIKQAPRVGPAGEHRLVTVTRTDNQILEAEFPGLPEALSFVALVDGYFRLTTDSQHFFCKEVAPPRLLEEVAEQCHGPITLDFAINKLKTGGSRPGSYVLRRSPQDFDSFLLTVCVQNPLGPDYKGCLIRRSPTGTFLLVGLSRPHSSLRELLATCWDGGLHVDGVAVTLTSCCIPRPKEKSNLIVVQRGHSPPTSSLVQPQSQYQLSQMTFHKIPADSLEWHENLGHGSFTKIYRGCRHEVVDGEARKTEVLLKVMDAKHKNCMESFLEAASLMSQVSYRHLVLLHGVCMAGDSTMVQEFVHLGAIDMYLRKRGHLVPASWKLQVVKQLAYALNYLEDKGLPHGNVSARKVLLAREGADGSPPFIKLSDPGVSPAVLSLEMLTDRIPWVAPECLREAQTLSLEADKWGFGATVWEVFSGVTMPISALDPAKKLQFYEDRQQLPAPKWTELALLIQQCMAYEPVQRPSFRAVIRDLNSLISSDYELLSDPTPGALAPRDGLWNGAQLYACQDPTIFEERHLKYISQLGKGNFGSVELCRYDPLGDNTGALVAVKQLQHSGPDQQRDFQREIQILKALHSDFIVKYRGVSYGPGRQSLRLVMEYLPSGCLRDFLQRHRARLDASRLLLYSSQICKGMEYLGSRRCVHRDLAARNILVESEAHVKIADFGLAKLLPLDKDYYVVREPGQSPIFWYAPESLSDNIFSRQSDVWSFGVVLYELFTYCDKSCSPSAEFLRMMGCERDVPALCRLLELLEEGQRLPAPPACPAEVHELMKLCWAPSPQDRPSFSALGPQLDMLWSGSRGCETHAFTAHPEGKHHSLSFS
UniProt P42680, whole entry: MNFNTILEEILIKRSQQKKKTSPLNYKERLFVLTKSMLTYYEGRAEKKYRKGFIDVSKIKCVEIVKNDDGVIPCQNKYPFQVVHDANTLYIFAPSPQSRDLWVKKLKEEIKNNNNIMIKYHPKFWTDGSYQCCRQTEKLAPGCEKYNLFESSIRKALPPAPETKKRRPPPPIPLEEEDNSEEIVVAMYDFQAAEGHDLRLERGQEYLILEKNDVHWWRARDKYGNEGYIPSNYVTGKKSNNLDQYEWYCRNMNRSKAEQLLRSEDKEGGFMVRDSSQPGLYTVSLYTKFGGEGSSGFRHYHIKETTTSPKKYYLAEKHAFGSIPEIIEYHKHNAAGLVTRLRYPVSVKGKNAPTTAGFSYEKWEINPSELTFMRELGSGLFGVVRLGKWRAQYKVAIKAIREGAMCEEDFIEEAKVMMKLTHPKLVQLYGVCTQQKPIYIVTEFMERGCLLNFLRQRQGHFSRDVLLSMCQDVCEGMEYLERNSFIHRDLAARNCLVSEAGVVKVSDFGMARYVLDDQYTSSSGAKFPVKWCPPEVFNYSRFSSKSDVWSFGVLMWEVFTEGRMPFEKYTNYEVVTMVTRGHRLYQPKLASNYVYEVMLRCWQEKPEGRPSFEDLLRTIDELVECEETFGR
UniProt P06239, whole entry: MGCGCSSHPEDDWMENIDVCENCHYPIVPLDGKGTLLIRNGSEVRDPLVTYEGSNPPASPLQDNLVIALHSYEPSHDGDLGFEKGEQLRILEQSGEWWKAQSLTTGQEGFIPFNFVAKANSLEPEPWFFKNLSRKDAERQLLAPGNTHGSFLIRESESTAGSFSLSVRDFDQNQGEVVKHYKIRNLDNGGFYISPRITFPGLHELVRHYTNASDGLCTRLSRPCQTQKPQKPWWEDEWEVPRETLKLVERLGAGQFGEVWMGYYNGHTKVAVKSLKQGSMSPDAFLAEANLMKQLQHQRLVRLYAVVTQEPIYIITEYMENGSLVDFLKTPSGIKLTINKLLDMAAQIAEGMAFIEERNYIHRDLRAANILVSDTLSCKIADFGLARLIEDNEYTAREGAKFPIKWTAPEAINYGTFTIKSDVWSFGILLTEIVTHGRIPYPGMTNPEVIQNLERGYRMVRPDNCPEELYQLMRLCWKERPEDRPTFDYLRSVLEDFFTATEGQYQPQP
UniProt Q08881, whole entry: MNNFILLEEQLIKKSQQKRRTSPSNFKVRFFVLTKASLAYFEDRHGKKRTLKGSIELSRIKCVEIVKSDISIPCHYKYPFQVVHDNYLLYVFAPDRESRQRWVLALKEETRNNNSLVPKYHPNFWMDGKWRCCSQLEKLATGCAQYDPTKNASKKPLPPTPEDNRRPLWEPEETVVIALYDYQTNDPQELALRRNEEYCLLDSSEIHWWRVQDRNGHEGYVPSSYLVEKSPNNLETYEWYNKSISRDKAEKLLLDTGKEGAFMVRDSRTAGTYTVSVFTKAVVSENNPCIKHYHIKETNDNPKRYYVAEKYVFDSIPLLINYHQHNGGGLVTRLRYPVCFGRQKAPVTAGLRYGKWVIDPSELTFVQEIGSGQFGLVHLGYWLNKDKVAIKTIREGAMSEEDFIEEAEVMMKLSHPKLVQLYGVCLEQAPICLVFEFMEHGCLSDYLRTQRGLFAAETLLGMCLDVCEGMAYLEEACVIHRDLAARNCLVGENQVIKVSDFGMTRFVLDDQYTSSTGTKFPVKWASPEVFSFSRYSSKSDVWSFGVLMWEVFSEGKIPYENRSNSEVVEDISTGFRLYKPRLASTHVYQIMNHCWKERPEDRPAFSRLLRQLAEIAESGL

Tests used:
Assay type in all cases: biochemical
EGFR = EGFR (Homo sapiens, UniProt P00533); test: Inhibition of a panel of kinases, in vitro HotSpot kinase assay: EGFR; conditions: read-out: IC50 EGFR; D-compounds panel data; 1 μM ATP
Procedure: (§1) The degree of inhibition of a panel of kinases is determined using the in vitro HotSpot kinase assay (purified enzymes, ^33P-ATP, an appropriate substrate and 1 μM ATP).

SRC = SRC (Homo sapiens, UniProt P12931); test: Inhibition of a panel of kinases, in vitro HotSpot kinase assay: SRC; conditions: read-out: IC50 SRC; D-compounds panel data; 1 μM ATP
Procedure: as §1

BTK-WT = BTK-WT (Homo sapiens, UniProt Q06187); test: Btk in vitro inhibitory activity (one of Method A TR-FRET, Method B electrophoretic mobility shift, Method C radiometric filter binding); conditions: read-out: IC50 BTK-WT; D-compounds panel data
JAK3 = JAK3 (Homo sapiens, UniProt P52333); test: Inhibition of a panel of kinases, in vitro HotSpot kinase assay: JAK3; conditions: read-out: IC50 JAK3; D-compounds panel data; 1 μM ATP
TEC = TEC (Homo sapiens, UniProt P42680); test: Inhibition of a panel of kinases, in vitro HotSpot kinase assay: TEC; conditions: read-out: IC50 TEC; D-compounds panel data; 1 μM ATP
Procedure: as §1

LCK = LCK (Homo sapiens, UniProt P06239); test: Inhibition of a panel of kinases, in vitro HotSpot kinase assay: LCK; conditions: read-out: IC50 LCK; D-compounds panel data; 1 μM ATP
ITK = ITK (Homo sapiens, UniProt Q08881); test: Inhibition of a panel of kinases, in vitro HotSpot kinase assay: ITK; conditions: read-out: IC50 ITK; D-compounds panel data; 1 μM ATP
Procedure: as §1

Cn1cc(Nc2nc(N3C[C@H](CO)C[C@@H](NC(=O)c4ccc(C5CC5)cc4)C3)cnc2C(N)=O)cn1 (relative stereo)
pIC50 (EGFR): < 5.00
pIC50 (SRC): < 5.00
pIC50 (BTK-WT): 7.00 to 8.00
pIC50 (JAK3): < 5.00
pIC50 (TEC): 6.00 to 7.00
pIC50 (LCK): < 5.00
pIC50 (ITK): < 5.00

C[C@@H]1[C@H](NC(=O)c2ccc(C3CC3)cc2F)CCCN1c1cnc(C(N)=O)c(Nc2ccc(C(=O)N3CCN(C)CC3)cc2)n1 [Example A-122, 5-[(2R,3R)-3-(4-cyclopropyl-2-fluorobenzamido)-2-methylpiperidin-1-yl]-3-{[4-(4-methylpiperazine-1-carbonyl)phenyl]amino}pyr-azine-2-carboxamide]
pIC50 (EGFR): 6.00 to 7.00
pIC50 (SRC): 6.00 to 7.00
pIC50 (BTK-WT): > 8.00
pIC50 (JAK3): 6.00 to 7.00
pIC50 (TEC): 7.00 to 8.00
pIC50 (LCK): 6.00 to 7.00
pIC50 (ITK): 6.00 to 7.00
